Measurements as given in patent US7960408B2, “Quinolinyl and benzothiazolyl modulators” (Amgen Inc., priority 2000, dated 2011).

The chains behind the UniProt entries cited, without tags or fusion partners.
UniProt P37231, whole entry: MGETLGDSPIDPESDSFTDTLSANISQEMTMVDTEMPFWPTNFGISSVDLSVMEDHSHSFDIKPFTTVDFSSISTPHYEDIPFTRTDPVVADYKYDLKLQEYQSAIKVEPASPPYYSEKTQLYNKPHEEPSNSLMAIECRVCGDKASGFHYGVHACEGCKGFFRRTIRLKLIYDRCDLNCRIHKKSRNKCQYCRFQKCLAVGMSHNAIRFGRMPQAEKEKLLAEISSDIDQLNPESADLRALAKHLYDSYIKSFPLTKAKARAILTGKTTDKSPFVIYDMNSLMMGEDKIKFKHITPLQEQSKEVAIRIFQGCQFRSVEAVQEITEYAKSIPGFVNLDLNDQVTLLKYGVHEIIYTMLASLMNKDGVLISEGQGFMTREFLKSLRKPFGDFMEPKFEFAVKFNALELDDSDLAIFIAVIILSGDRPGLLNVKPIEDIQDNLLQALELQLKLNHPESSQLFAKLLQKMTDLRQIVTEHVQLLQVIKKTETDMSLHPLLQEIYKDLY

Target: PPARγ (Homo sapiens, UniProt P37231)
Assay: PPARγ ligand binding assay utilizing [3H]-BRL 49653 as the radioligand
Details: read-out: PPARγ Binding IC50; concentration required to reduce by 50% the specific binding of [3H]-BRL 49653

| IC50 [nM] | Compound |
| --- | --- |
| < 1000 | Cc1cc(S(=O)(=O)Nc2cc(Cl)c(Oc3cnc4ccccc4c3)c(Cl)c2)c(Cl)cc1Cl |
| 1000 to 10000 | Cc1ccc(Cl)c2sc(Nc3ccc(NS(=O)(=O)c4ccc(C(F)(F)F)cc4Cl)cc3Cl)nc12 |
| < 1000 | Cc1ccc2nc(Nc3c(Cl)cc(NS(=O)(=O)c4ccc(Cl)cc4Cl)cc3Cl)sc2c1 |
| < 1000 | Cc1cc(S(=O)(=O)Nc2cc(Cl)c(Nc3nc4cc(Cl)cc(Cl)c4s3)c(Cl)c2)c(Cl)cc1Cl |
| < 1000 | O=S(=O)(Nc1cc(Cl)c(Nc2nc3cc(Cl)cc(Cl)c3s2)c(Cl)c1)c1ccc(Cl)cc1Cl |
| < 1000 | O=S(=O)(Nc1cc(Cl)c(Nc2nc3cccc(Cl)c3s2)c(Cl)c1)c1ccc(Cl)cc1Cl |
| < 1000 | O=S(=O)(Nc1cc(Cl)c(Nc2nc3cc(Cl)cc(Cl)c3s2)c(Cl)c1)c1ccc(C(F)(F)F)cc1Cl |
| < 1000 | Cc1ccc2nc(Nc3c(Cl)cc(NS(=O)(=O)c4cc(C)c(Cl)cc4Cl)cc3Cl)sc2c1 |
| < 1000 | CS(=O)(=O)c1ccc2nc(Nc3c(Cl)cc(NS(=O)(=O)c4ccc(C(F)(F)F)cc4Cl)cc3Cl)sc2c1 |
| < 1000 | O=S(=O)(Nc1cc(Cl)c(Nc2nc3cccc(Cl)c3s2)c(Cl)c1)c1ccc(C(F)(F)F)cc1Cl |
| < 1000 | O=S(=O)(Nc1cc(Cl)c(Nc2nc3ccc(Cl)cc3s2)c(Cl)c1)c1ccc(C(F)(F)F)cc1Cl |
| 1000 to 10000 | Cc1ccc(Cl)c2sc(Nc3ccc(NS(=O)(=O)c4ccc(Cl)cc4Cl)cc3Cl)nc12 |
| < 1000 | Cc1cccc2sc(Nc3c(Cl)cc(NS(=O)(=O)c4ccc(C(F)(F)F)cc4Cl)cc3Cl)nc12 |
